## Yeast mating assay 2: variants of the scFv Ab-95

The measurements come from Engelhart et al. 2022 (doi:10.1038/s41597-022-01779-4) through the FLAb antibody collection.

Antigen: PDVDLGDISGINAS, a 14-residue peptide of the SARS-CoV-2 spike HR2 region.

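Phage display of a naive human antibody library on the peptide gave the parent. AAYL52 was designed without a model: most single CDR substitutions and a random sample of double and triple ones. The assay is AlphaSeq: two haploid yeast populations carry antibody and antigen on their surface. Binding brings cells together so that they mate, and sequencing counts the barcode pairs among the diploids. Scores were corrected for input abundance and mapped to Kd with protein pairs of known affinity run in the same pool. Mating was done three times.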

Parent scFv Ab-95: VH joined to VL by three GGGGS repeats. Changes lie in the light chain CDRs alone.
VH: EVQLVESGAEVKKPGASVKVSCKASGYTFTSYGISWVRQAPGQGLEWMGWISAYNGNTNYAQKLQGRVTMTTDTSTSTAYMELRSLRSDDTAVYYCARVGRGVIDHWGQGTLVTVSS
VL: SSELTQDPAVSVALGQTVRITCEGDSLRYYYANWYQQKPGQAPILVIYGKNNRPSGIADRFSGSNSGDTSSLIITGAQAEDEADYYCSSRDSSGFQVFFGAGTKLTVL

Positions count from residue 1 of the parent VL; L27V puts V in place of L.
Every variant below is changed at L27 of the VL (sequential numbering).
The Kd shown is the geometric mean over detected replicates; a lower Kd is a better binder.
Where no diploid with the target was found in any replicate, the entry reads "nd": below detection, most likely a poor binder, though not proof of it.
The list is sorted by this average, lowest first, undetected variants last.
As a blank, each scFv also met three strains without target: over library AAYL52, 28% of these pairings were detected, typically at 8.2 µM and seldom below 800 nM. For each scFv, signals with the empty controls are counted beside the result.

* L27V Y30T S55Y: 90 nM (3 of 3 replicates; controls 2 of 9)
* L27N Y30R N52F: 270 nM (1 of 3 replicates; controls 1 of 9)
* S26D L27W N52T: 350 nM (3 of 3 replicates; controls 2 of 9)
* L27I S92G: 390 nM (3 of 3 replicates; controls 5 of 9)
* L27V N52G: 590 nM (1 of 3 replicates; controls 0 of 9)
* D25T S26Q L27P: 1.1 µM (3 of 3 replicates; controls 0 of 9)
* E23T L27V F95G: 1.3 µM (3 of 3 replicates; controls 2 of 9)
* L27W K50Y P54M: 1.4 µM (2 of 3 replicates; controls 0 of 9)
* L27F S92I V97Y: 1.6 µM (3 of 3 replicates; controls 2 of 9)
* S26T L27Q N51G: 1.8 µM (1 of 3 replicates; controls 1 of 9)
* L27Y Y29S F98G: 2.0 µM (3 of 3 replicates; controls 6 of 9)
* E23P S26F L27W: 2.2 µM (3 of 3 replicates; controls 6 of 9)
* L27E Y29D N51S: 2.6 µM (3 of 3 replicates; controls 2 of 9)
* E23G L27D N52Q: 2.8 µM (3 of 3 replicates; controls 2 of 9)
* L27A Y30T F98C: 3.3 µM (1 of 3 replicates; controls 2 of 9)
* L27A A32M F95G: 3.7 µM (3 of 3 replicates; controls 3 of 9)
* L27N G49W F98R: 3.9 µM (3 of 3 replicates; controls 5 of 9)
* L27A A32C: 3.9 µM (3 of 3 replicates; controls 5 of 9)
* L27Q S55K S93C: 4.6 µM (1 of 3 replicates; controls 1 of 9)
* D25I L27V N52M: 5.4 µM (3 of 3 replicates; controls 3 of 9)
* G24M L27Y K50A: 6.5 µM (1 of 3 replicates; controls 0 of 9)
* S26G L27G Q96N: 8.3 µM (2 of 3 replicates; controls 1 of 9)
* L27C N33I N51F: 9.0 µM (3 of 3 replicates; controls 2 of 9)
* L27E S88D F98T: 9.4 µM (2 of 3 replicates; controls 5 of 9)
* L27H Y30W P54S: 9.4 µM (2 of 3 replicates; controls 3 of 9)
* L27N K50F N51G: 9.4 µM (3 of 3 replicates; controls 3 of 9)
* L27I N52W F95P: 9.8 µM (2 of 3 replicates; controls 2 of 9)
* L27F G94Y F98G: 11 µM (1 of 3 replicates; controls 2 of 9)
* L27V Y31W N33H: 14 µM (2 of 3 replicates; controls 5 of 9)
* L27P Y29F R53G: 16 µM (2 of 3 replicates; controls 3 of 9)
* L27V R53S S55W: 17 µM (3 of 3 replicates; controls 1 of 9)
* L27S R28T F95Y: 19 µM (2 of 3 replicates; controls 0 of 9)
* L27W N52I S92P: 23 µM (1 of 3 replicates; controls 3 of 9)
* L27W R28M K50L: 39 µM (1 of 3 replicates; controls 4 of 9)
* L27C R90K F95T: 39 µM (2 of 3 replicates; controls 2 of 9)
* L27T N33G F95A: 42 µM (2 of 3 replicates; controls 2 of 9)
* L27F D91H G94R: 46 µM (2 of 3 replicates; controls 4 of 9)
* L27K N52Q: 84 µM (2 of 3 replicates; controls 4 of 9)
* L27T N51F P54E: 150 µM (1 of 3 replicates; controls 1 of 9)
* L27H S55C V97N: 170 µM (1 of 3 replicates; controls 1 of 9)
* L27E D91R: 240 µM (1 of 3 replicates; controls 5 of 9)
* L27C R28H V97T: nd (0 of 3 replicates; controls 0 of 9)
* L27W N33E G94R: nd (0 of 3 replicates; controls 1 of 9)
* L27E G49T R90F: nd (0 of 3 replicates; controls 3 of 9)
* L27E N33H F95K: nd (0 of 3 replicates; controls 2 of 9)
* L27Y R28H K50L: nd (0 of 3 replicates; controls 1 of 9)

5 of these entries, quoted again:

changes	Kd (apparent)	seen in	control signals
L27V Y30T S55Y	90 nM	3 of 3	2 of 9
L27W N33E G94R	nd	0 of 3	1 of 9
L27V R53S S55W	17 µM	3 of 3	1 of 9
L27I N52W F95P	9.8 µM	2 of 3	2 of 9
L27I S92G	390 nM	3 of 3	5 of 9